Data taken from patent publication US20120276545A1, “METHOD FOR USING DIVISION ARRESTED CELLS IN SCREENING ASSAYS” (LIFE TECHNOLOGIES CORPORATION, priority 2002, published 2012).

Test system: β2AR expressing cells
Conditions: mitomycin treatment for 2 hours of β2AR expressing HEK293 cells

In the case of `CO[C@@]12[C@H](COC(N)=O)C3=C(C(=O)C(C)=C(N)C3=O)N1C[C@@H]1N[C@@H]12` [Miyotmycin C, mitomycin C], the toxicity to cells is reported as “significant toxicity”.
